The values below come from published antibiotic growth screens (doi:10.1038/s41589-023-01349-8).

Structures are written as SMILES. Some of the results follow.

The test system of the test is A. baumannii ATCC 17978. Kind of test: relative growth (fraction of control); higher = less inhibition. As to conditions: 50 µM.
With `CN1CCC(=C2c3ccccc3CCc3sccc32)CC1.O=C(O)CC(O)C(=O)O`, the relative growth turned out to be 0.975.
The compound `NC(=O)C1CCCN1C(=O)C(Cc1c[nH]cn1)NC(=O)C1CCC(=O)N1` (centres undefined) came in with a relative growth of 1.14.
Next, `CCCCc1nc2ccccc2c(N)c1CC.O=C1O[C@H]([C@H](O)CO)[C@@H](O)C1=O`: 0.853; `CCNC(=O)C[C@@H]1CC[C@H](NC(=O)C2CC2)[C@H](CO)O1`: 0.909; `N#C/C(=C\c1ccc(C(F)(F)F)cc1)c1c[nH]c2ccccc12`: 1.04.
For the compound `COS(=O)(=O)[O-].COc1cc(N)cn[n+]1-c1ccccc1`, the relative growth stood at 1.04.
The same measure for `COc1ccccc1S(=O)(=O)N(C)C[C@H]1Oc2cc(C#CCC(C)C)ccc2S(=O)(=O)N([C@@H](C)CO)C[C@@H]1C`: 1.35; for `CC[C@H]1OC(=O)[C@H](C)[C@@H](O[C@H]2C[C@@](C)(OC)[C@@H](O)[C@H](C)O2)[C@H](C)[C@@H](O[C@@H]2O[C@H](C)C[C@H](N(C)C)[C@H]2O)[C@](C)(O)C[C@@H](C)C(=O)[C@H](C)[C@@H](O)[C@]1(C)O`: 0.112; for `NCCSc1cc(C(F)(F)F)nc2ccccc12`: 1.03.
Compound `CC(C(=O)O)c1ccc(CC2CCCC2=O)cc1` (centres undefined) gave a relative growth of 1.07.
In the case of `COC(=O)CSc1nc(=O)c(C)n[nH]1`, the relative growth turned out to be 0.967.
Next, `CN(C)CC#Cc1cncc(C(=O)NN)c1`: 0.946; `C=CCNC(=O)[C@H]1[C@@H]2C(=O)O[C@@H](c3ccccc3)[C@@H](c3ccccc3)N2[C@@H](c2ccc(O)cc2)[C@]12C(=O)N(C(=O)OCCOC)c1ccc(C#CC3(O)CCCCCC3)cc12`: 0.997.
`O=C(Cc1ccccn1)NCC[C@H]1CC[C@H](NC(=O)CN2CCOCC2)[C@@H](CO)O1` showed a relative growth of 0.942.
`CO[C@H](CN(C)S(=O)(=O)c1ccc(Cl)cc1)[C@@H](C)CN([C@@H](C)CO)S(=O)(=O)c1cccc(Cl)c1` showed a relative growth of 0.94.
The same measure for `CNS(=O)(=O)c1cc(OC)ccc1OC`: 1.05.
`CC1=C(/C=C/C(C)=C/C=C/C(C)=C/C=C/C=C(C)/C=C/C=C(C)/C=C/C2=C(C)CCCC2(C)C)C(C)(C)CCC1` [beta-CAROTENE [2mM]] yielded a relative growth of 0.976.
`CC(C)NC(=O)Nc1ccc2c(c1)C(=O)N([C@H](C)CO)C[C@@H](C)[C@H](CN(C)S(=O)(=O)c1ccc(Cl)cc1)O2`: the relative growth came to 0.998.
Compound `Cc1ccc(O)c(-c2cc(-c3ccc(C(C)(C)C)cc3)[nH]n2)c1` registered a relative growth of 0.936.
For the compound `Cc1ccc(S(=O)(=O)N2C[C@@H](O)COC[C@@H]3O[C@H](CC(=O)NCCCN(C)C)CC[C@H]32)cc1`, the relative growth worked out at 1.11.
For `O=C(C[C@@H]1C=C[C@H](NC(=O)CN2CCOCC2)[C@H](CO)O1)NCCc1ccccc1`, the relative growth was found to be 1.16.
The same measure for `CC(C)(C)OC(=O)NCc1nnc(N)[nH]1`: 0.958; for `CCOC(=O)N(C)C[C@@H]1OCc2cn(nn2)CCCC(=O)N([C@@H](C)CO)C[C@H]1C`: 0.886; for `CNC(=O)CN(CCN(CCN(CC(=O)[O-])CC(=O)NC)CC(=O)[O-])CC(=O)[O-].[Gd]`: 0.971.
Compound `C[C@H](NC(=O)C[C@@H]1CC[C@@H](NC(=O)CN2CCOCC2)[C@@H](CO)O1)c1ccccc1` had a relative growth of 0.988.
`O=C(C[C@@H]1C=C[C@H](NC(=O)C2CC2)[C@@H](CO)O1)NCCCN1CCOCC1` showed a relative growth of 0.888.
On to `CC1=CC(=O)[C@H]2C(C)(C)CCC[C@]2(C)[C@@]1(O)CCc1ccoc1`, for which the relative growth was 1.01.
`COc1cccc2c1C(=O)c1c(O)c3c(c(O)c1C2=O)C[C@@](O)(C(=O)CO)C[C@@H]3O[C@H]1C[C@H](N)[C@@H](O)[C@H](C)O1.Cl` displayed a relative growth of 0.714.
As for `CC(C)(Oc1ccc(CCNC(=O)c2ccc(Cl)cc2)cc1)C(=O)O`, the relative growth turned out to be 0.942.
Regarding `C#C[C@]1(O)CCC2C3CCC4=CC(=O)CC[C@@H]4C3CC[C@@]21CC` (some centres undefined), the relative growth worked out at 0.993.
Next, `O=C(Cc1ccncc1)Nc1ccc2c(c1)[C@@H]1C[C@@H](CC(=O)N3CCc4ccccc4C3)O[C@@H](CO)[C@@H]1O2`: 0.969.
Consider `O=C(O)CCc1nc(-c2ccccc2)c(-c2ccccc2)o1`, for which the relative growth was determined as 1.03.
Next, `CNc1nc(OCC#N)nc(N2CCCCC2)n1`: 0.927; `O=C(C[C@@H]1CC[C@@H](NS(=O)(=O)c2ccccc2F)[C@@H](CO)O1)NCCCN1CCOCC1`: 0.926.
The same measure for `CC1(C)C=Cc2c(c3c(c4c(=O)c(-c5ccc(O)cc5)coc24)OC(C)(C)CC3)O1`: 0.944.
Next, `Cc1sccc1-c1csc(N)n1`: 0.935.
Compound `CCN(CC)CCNC(=O)c1cc(Cl)c(N)cc1OC.Cl` returned a relative growth of 0.97.
Next, `CC(C)NC(=O)N(C)C[C@@H]1Oc2cc(-c3ccccc3F)ccc2S(=O)(=O)N([C@H](C)CO)C[C@@H]1C`: 0.945; `O=C1c2ccccc2C(=O)C1c1ccccc1`: 1.11.
The same measure for `NC[C@H](c1ccco1)N1CCN(c2ccc(F)cc2)CC1`: 1.04; for `Clc1ccc2c(c1)C(N1CCNCC1)=Nc1ccccc1O2`: 0.795; for `O=C(O)C1CC([C@H]2CCCCN2)CN2CCCCC12` (some centres undefined): 1.09.
The same measure for `Oc1c(Br)cc(Br)c2cccnc12`: 0.291; for `COc1ccc(-c2coc3cc(O)ccc3c2=O)cc1`: 1.12.
As for `CN1CCN(c2cc3c(cc2F)c(=O)c(C(=O)O)cn3-c2ccc(F)cc2)CC1.Cl`, the relative growth was found to be 0.163.
The same measure for `Cc1c(C(=O)O)c(O)cc2c1C(=O)c1c(O)c(C3O[C@H](CO)[C@@H](O)[C@H](O)[C@H]3O)c(O)c(O)c1C2=O` (some centres undefined): 1.26.
The same measure for `CC(C)C(C)/C=C/C(C)C1CCC2C3=CC=C4CC(O)CCC4(C)C3CCC21C` (centres undefined): 1.31.
Next, `CN1CCN(C(=O)C[C@@H]2CC[C@@H]3[C@H](COC[C@@H](O)CN3S(=O)(=O)c3cccc(Cl)c3)O2)CC1`: 0.927; `C[C@@H]1COCC(=O)N1`: 1.06; `C=CCOC(=O)[C@H]1[C@@H]2C(=O)O[C@@H](c3ccccc3)[C@@H](c3ccccc3)N2[C@@H](c2ccc(OCCOC(=O)[C@H]3C[C@H]4C(=O)NCC(=O)N4[C@H]3c3ccc(O)cc3)cc2)[C@]12C(=O)Nc1ccccc12`: 0.996.
`O=C(C[C@@H]1CC[C@H]2[C@@H](COC[C@@H](O)CN2C(=O)Nc2ccc(Cl)c(Cl)c2)O1)NCc1ccc(Cl)c(Cl)c1` displayed a relative growth of 0.966.
The compound `NC(=O)c1ccccc1O` yielded a relative growth of 1.04.
With `C[C@@H]1CN([C@@H](C)CO)S(=O)(=O)c2ccc(C#Cc3ccncc3)cc2O[C@@H]1CN(C)C(=O)C1CCC1`, the relative growth came out at 0.942.
Next, `CC(=O)N[C@H]1CC[C@@H](CCNC(=O)C2CC2)O[C@@H]1CO`: 0.964; `Nc1ncnc2nc(N3CCCCC3)[nH]c12`: 1.11.
The same measure for `NC(=O)CSc1nnnn1-c1cccc(O)c1`: 1.03; for `CC(CCC(=O)O)[C@H]1CCC2C3CC[C@@H]4C[C@H](O)CC[C@]4(C)C3CC[C@@]21C` (some centres undefined): 1.25.
Next, `COc1cc2c(cc1OC)-c1cc3ccc(OC)c(OC)c3c[n+]1CC2.[Cl-]`: 1.05.
Turning to `CCC(=O)N[C@@H]1C=C[C@@H](CC(=O)OC)O[C@@H]1CO`, the relative growth worked out at 1.06.
In turn, `CC1(C)CCC(c2ccc(Cl)cc2)=C(CN2CCN(c3ccc(C(=O)NS(=O)(=O)c4ccc(N[C@H](CCN5CCOCC5)CSc5ccccc5)c(S(=O)(=O)C(F)(F)F)c4)cc3)CC2)C1` displayed a relative growth of 1.09.
For `CNC[C@H]1Oc2cc(C#CCN(C)C)ccc2S(=O)(=O)N([C@@H](C)CO)C[C@H]1C`, the relative growth was 1.17.
Next, `COc1ccc(C(=O)CCC(=O)O)c2ccccc12`: 1.18.
Next, `CCc1ccc(NC(=O)Cc2coc3ccc(C(C)C)cc23)cc1`: 1.04; `Cc1ccc(NC(=O)C[C@@H](N)C(=O)O)cc1`: 0.899; `Nc1nc(F)nc2c1ncn2[C@@H]1O[C@H](COP(=O)(O)O)[C@@H](O)[C@@H]1O`: 1.03.
The same measure for `CN1CCN(C(=O)C[C@H]2CC[C@H]3[C@@H](COC[C@H](O)CN3C(=O)C3CCOCC3)O2)CC1`: 1.12; for `COc1cccc(-c2ccc3c(c2)O[C@H](CN(C)C(=O)C2CC2)[C@@H](C)CN([C@H](C)CO)S3(=O)=O)c1`: 1.12; for `COc1cc2c(cc1OC)C1C(=O)c3c(O)cc4c(c3OC1CO2)C=CC(C)(C)O4` (stereo not drawn) [alpha-TOXICAROL (dl)]: 1.06.
`CCOC(=O)N1CCC(=C2c3ccc(Cl)cc3CCc3cccnc32)CC1` displayed a relative growth of 0.967.
The same measure for `C[C@H]1CN([C@@H](C)CO)S(=O)(=O)c2ccc(C#CCN(C)C)cc2O[C@@H]1CN(C)Cc1ccc(F)cc1`: 0.692.
As to `N[C@H](CC(=O)O)C(=O)O`, the relative growth stood at 1.15.
Next, `C[C@@H]1CN([C@@H](C)CO)C(=O)c2cc(C#Cc3ccccc3)cnc2O[C@H]1CN(C)S(=O)(=O)c1ccccc1F`: 1.06.
Consider `COc1ccccc1S(=O)(=O)N[C@H]1C=C[C@@H](CC(=O)N2CCN(C)CC2)O[C@@H]1CO`, for which the relative growth was determined as 0.951.
The same measure for `Cl.Nc1ccn([C@@H]2O[C@H](CO)[C@@H](O)C2(F)F)c(=O)n1`: 0.845; for `CCOc1nn(CC)cc1C(=O)O`: 1.12.
The same measure for `COc1ccccc1CNC(=O)C[C@@H]1C[C@@H]2c3cc(NC(=O)c4cccnc4)ccc3O[C@@H]2[C@@H](CO)O1`: 1.04.
Next, `O=C(Nc1ccccc1C(=O)O)c1nnc[nH]1`: 1.11; `OC[C@@H](O)[C@@H](O)[C@@H](O)CO`: 1.03; `CCCc1nc(C(C)(C)O)c(C(=O)OCc2oc(=O)oc2C)n1Cc1ccc(-c2ccccc2-c2nn[nH]n2)cc1`: 0.948.
Compound `CCN(CC)C(=O)N1CCN(C)CC1.O=C(O)CC(O)(CC(=O)O)C(=O)O` had a relative growth of 1.1.
As to `COC(=O)C[C@H]1C(C)(C)[C@@H](OC(C)=O)[C@@H]2CC3=C4CC(=O)O[C@@H](c5ccoc5)[C@]4(C)CCC3[C@@]1(C)C2=O` (some centres undefined), the relative growth stood at 0.975.
Next, `C=CCOC(=O)[C@H]1[C@@H]2C(=O)O[C@@H](c3ccccc3)[C@@H](c3ccccc3)N2[C@@H](c2ccc(OCCOC(=O)[C@H]3C[C@H]4C(=O)N[C@@H](CCCCNC(C)=O)C(=O)N4[C@H]3c3ccc(O)cc3)cc2)[C@]12C(=O)Nc1ccc(I)cc12`: 1.72; `Nc1nc2nc[nH]c2c(=S)[nH]1`: 0.991.
The same measure for `CCCC(=O)Nc1ccc2c(c1)C(=O)N(C)[C@H]1CC[C@H](CC(=O)NCCN3CCCCC3)O[C@H]1CO2`: 0.939.
